Apparent affinities of Ab-14 variants for a coronavirus HR2 peptide

Binding partner: SARS-CoV-2 spike HR2 peptide, sequence PDVDLGDISGINAS.

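Phage display of a naive human antibody library on the peptide gave the parent. Designed CDR sequences, proposed from the first random library and measured here. Group labels follow the data file (Ctrl: baseline library sampled from a position-specific scoring matrix, with some repeated check sequences; Rand: our label for a block that the file lists under HC and that is probably the random mutants of the ten best first-round binders; En: ensemble of fine-tuned language models; GP: Gaussian process model; GPLM: also part of the Gaussian process libraries; HC: hill climbing; Gen: genetic algorithm; Gibbs: Gibbs sampling; a sequence that several methods proposed may carry one label only). Affinity was read by AlphaSeq, a pooled yeast mating assay with surface-displayed partners. After mating in shaken culture at 30 °C for 16 h, diploids were selected and their barcode pairs sequenced. The ratio of observed to expected reads was calibrated, replicate by replicate, on BCL2-family standards whose Kd was known from biolayer interferometry. Each pool was mated in six replicate cultures.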

The variants keep the light chain, the linker and the frameworks of Ab-14 (scFv order VH, a 15-residue (Gly4Ser)3 linker, VL).
VH: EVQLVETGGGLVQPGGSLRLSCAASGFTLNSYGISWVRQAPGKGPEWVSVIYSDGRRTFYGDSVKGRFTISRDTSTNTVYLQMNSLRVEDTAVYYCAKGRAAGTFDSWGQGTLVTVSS
VL: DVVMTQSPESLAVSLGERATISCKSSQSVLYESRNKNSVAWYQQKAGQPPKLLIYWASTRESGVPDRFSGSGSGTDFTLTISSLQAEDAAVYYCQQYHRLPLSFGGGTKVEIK

Positions count from residue 1 of the parent VH; T28S puts S in place of T. This list holds designs with at most six substitutions. Values are apparent Kd, the geometric mean of the replicates that gave a signal; lower means stronger binding. "not detected" means that the variant was in the library but no mating with the target was seen in any replicate; the authors take this as a sign of poor binding, and no number exists. Of ten entries with the parent sequence, four were seen in most replicates (averages 2.2 nM to 240 nM), three in one and three in none, so single entries are noisy. Some sequences occur more than once in the pool; their replicates are pooled. Values of this round are not directly comparable with the first-round values of the same sequences. Empty control strains, which show no peptide, gave a signal in 1% of pairings with all heavy chain designs; the median was 120 nM and 95% of these signals were weaker than 7.0 nM. No background was subtracted. The control count says in how many pairings with the empty strains this scFv gave a signal. The authors' rule: three or more of the six replicates give a measured affinity, fewer mean a poor binder.

changes	group	Kd (apparent)	replicates with signal	control signals
T28S G61R	GP_HC	not detected	0/6	0/18
T28N S53A G61V F105N D106K	Rand	not detected	0/6	0/18
S31E F59M G61T A101F	GPLM_HC	7.1 nM	6/6	0/18
T28K S53A R56V F105N D106K	Rand	not detected	0/6	0/18
G61A A101G G103A	Ctrl	380 nM	6/6	2/18
L29R S31E Y32C S53A S107M	Ctrl	2.6 nM	6/6	0/18
T28D F59A G61E	Ctrl	1.6 nM	6/6	0/18
S31E R100Q S107T	GPLM_Gen	2.5 nM	6/6	0/18
T28H G99N R100Y T104I D106P	Ctrl	not detected	0/6	0/18
T28S G61A S63N R100E S107T	GP_Gibbs	2.7 nM	6/6	0/18
R56V A102Y	Ctrl	not detected	0/6	0/18
S53A F59A A102Q	Ctrl	360 nM	4/6	1/18
T28D S31E S53A G61S R100S A101V	En_HC	260 pM	6/6	0/18
T28S S31E S63A	GPLM_Gen	310 pM	6/6	0/18
G61I	Ctrl+GPLM_Gen	not detected	0/12	0/36
F27K S31E R56V G61R A101F F105P	Rand	97 nM	1/6	1/18
S31K A101E G103T	Ctrl	not detected	0/6	0/18
S31E S53M R100D	Ctrl	not detected	0/6	0/18
T28Q R56M	GP_HC	not detected	0/6	0/18
G61Q R100K A101L	GP_HC	98 nM	2/6	0/18
G61D G103S T104D S107V	Ctrl	not detected	0/6	0/18
T28S S31D G61I A101V	GPLM_Gen	1.3 nM	6/6	0/18
S31Q G61Q V64M T104C	Ctrl	not detected	0/6	0/18
G26N T28D A101T D106N	GP_HC	610 pM	1/6	0/18
T28D R100Q S107D	GPLM_Gibbs	8.6 nM	6/6	0/18
T28D D106C	Ctrl	not detected	0/6	0/18
G61D R100Q A101E S107E	GP_HC	16 nM	6/6	2/18
T28S S53A R100K	GPLM_Gen	1.2 nM	6/6	0/18
T28A G61Q R100Q A101L	GP_HC	23 nM	6/6	0/18
T28S S31E S63A R100K A101T	GPLM_Gibbs	600 pM	6/6	0/18
S31D A101C D106E	GPLM_HC	not detected	0/6	0/18
Y32Q G61S A102H D106N S107V	Ctrl	not detected	0/6	0/18
T28S S31E A101M S107K	GP_Gibbs	1.5 nM	6/6	0/18
T28Q G61I R100D	GP_Gibbs	26 nM	6/6	1/18
T28H G61S R100Q A101T	GP_Gen	3.1 nM	4/6	0/18
T28W G61K R100Q A101T	GP_Gen	52 nM	3/6	1/18
G26K T28S N30K A101T	GP_Gibbs	not detected	0/6	0/18
T28E G61L A101Q	Ctrl	33 nM	6/6	1/18
T28D S63Q A101T S107D	GP_Gen	3.5 nM	6/6	0/18
S31E D106I S107F	GPLM_HC	1.7 nM	6/6	0/18
T28H L29V A101E D106N	Ctrl	not detected	0/6	0/18
S31E Y60K G61T A101F	Rand	not detected	0/6	0/18
G33C G55W Y60G G61D R100Q A101L	Rand	not detected	0/6	0/18
G26D N30S R100Q A101E T104Q	Ctrl	88 nM	1/6	0/18
T28D G103D T104K	GPLM_HC	not detected	0/6	0/18
F59Q F105K	Ctrl	not detected	0/6	0/18
T28N G61V S63D R100S	GP_Gibbs	3.2 nM	6/6	0/18
S31E G61T A101F S107I	GPLM_HC	3.2 nM	6/6	0/18
T58L A101L S107K	Ctrl	not detected	0/6	0/18

A selection of 3 entries from above:

changes	group	Kd (apparent)	replicates with signal	control signals
T28D D106C	Ctrl	not detected	0/6	0/18
S31E D106I S107F	GPLM_HC	1.7 nM	6/6	0/18
T28D G103D T104K	GPLM_HC	not detected	0/6	0/18

Data: MIT Lincoln Laboratory AlphaSeq set, Li et al. 2023, doi:10.1038/s41467-023-39022-2, as distributed in FLAb.